Results from US20240390388A1, “TRICYCLIC COMPOUNDS AND USE THEREOF” (MEDSHINE DISCOVERY INC., priority 2021, published 2024).
pIC50: −log10 of the molar value.

Chains of the proteins cited; added tags and fusions are not shown. Lines headed by an entry give the natural chain unless they say otherwise; changes in a name come on top.
UniProt P48736, whole entry: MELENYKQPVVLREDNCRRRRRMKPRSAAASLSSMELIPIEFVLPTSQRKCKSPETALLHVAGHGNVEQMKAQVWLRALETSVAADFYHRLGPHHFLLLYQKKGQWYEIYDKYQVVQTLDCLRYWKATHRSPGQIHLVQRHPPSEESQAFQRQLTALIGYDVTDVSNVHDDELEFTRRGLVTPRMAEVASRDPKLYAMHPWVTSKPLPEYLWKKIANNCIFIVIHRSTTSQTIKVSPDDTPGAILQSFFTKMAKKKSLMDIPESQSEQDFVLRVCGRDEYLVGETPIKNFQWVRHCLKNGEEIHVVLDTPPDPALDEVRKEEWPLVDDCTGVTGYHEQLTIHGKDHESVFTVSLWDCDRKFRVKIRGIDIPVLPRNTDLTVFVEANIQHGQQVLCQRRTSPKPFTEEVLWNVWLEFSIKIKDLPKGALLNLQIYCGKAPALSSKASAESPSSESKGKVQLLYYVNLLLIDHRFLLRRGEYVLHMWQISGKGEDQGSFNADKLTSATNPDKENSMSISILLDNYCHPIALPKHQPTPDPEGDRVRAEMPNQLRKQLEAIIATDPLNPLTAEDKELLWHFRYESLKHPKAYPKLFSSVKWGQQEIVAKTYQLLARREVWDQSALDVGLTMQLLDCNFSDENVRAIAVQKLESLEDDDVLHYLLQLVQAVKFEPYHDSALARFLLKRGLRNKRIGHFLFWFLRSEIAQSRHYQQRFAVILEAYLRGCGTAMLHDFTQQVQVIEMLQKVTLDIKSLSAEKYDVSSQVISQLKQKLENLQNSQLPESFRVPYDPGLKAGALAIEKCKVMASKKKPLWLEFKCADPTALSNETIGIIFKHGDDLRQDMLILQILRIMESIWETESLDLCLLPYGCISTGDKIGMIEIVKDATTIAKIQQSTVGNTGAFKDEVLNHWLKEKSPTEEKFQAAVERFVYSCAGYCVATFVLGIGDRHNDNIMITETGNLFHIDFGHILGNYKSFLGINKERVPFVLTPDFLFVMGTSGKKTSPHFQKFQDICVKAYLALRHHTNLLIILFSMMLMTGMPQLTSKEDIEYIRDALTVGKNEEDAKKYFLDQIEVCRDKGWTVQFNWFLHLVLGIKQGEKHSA
UniProt O00329, whole entry: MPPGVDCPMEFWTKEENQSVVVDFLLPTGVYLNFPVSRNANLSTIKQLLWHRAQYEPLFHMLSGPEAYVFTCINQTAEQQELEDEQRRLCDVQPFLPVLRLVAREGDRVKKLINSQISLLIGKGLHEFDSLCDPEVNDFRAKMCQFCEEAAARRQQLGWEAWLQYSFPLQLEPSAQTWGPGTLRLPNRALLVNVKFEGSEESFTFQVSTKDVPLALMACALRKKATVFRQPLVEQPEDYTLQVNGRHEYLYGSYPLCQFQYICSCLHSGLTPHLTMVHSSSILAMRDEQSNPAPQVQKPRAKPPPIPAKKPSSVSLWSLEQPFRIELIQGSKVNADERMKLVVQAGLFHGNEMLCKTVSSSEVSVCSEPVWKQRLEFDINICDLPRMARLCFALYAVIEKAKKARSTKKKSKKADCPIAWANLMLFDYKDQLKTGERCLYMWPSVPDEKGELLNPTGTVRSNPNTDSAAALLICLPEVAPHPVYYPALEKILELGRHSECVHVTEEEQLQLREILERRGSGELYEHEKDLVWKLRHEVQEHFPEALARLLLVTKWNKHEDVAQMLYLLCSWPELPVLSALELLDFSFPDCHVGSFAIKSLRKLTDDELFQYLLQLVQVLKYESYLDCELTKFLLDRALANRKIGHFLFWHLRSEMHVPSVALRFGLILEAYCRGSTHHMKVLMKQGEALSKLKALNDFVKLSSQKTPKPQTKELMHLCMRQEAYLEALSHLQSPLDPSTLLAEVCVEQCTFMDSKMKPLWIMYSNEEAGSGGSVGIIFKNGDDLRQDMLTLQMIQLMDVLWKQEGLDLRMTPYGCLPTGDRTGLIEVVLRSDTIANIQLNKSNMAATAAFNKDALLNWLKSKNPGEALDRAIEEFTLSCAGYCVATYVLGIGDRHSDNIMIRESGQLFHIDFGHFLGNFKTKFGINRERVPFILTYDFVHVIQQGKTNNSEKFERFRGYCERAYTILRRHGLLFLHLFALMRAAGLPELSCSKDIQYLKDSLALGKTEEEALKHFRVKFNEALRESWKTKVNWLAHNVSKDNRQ
UniProt P42336, whole entry: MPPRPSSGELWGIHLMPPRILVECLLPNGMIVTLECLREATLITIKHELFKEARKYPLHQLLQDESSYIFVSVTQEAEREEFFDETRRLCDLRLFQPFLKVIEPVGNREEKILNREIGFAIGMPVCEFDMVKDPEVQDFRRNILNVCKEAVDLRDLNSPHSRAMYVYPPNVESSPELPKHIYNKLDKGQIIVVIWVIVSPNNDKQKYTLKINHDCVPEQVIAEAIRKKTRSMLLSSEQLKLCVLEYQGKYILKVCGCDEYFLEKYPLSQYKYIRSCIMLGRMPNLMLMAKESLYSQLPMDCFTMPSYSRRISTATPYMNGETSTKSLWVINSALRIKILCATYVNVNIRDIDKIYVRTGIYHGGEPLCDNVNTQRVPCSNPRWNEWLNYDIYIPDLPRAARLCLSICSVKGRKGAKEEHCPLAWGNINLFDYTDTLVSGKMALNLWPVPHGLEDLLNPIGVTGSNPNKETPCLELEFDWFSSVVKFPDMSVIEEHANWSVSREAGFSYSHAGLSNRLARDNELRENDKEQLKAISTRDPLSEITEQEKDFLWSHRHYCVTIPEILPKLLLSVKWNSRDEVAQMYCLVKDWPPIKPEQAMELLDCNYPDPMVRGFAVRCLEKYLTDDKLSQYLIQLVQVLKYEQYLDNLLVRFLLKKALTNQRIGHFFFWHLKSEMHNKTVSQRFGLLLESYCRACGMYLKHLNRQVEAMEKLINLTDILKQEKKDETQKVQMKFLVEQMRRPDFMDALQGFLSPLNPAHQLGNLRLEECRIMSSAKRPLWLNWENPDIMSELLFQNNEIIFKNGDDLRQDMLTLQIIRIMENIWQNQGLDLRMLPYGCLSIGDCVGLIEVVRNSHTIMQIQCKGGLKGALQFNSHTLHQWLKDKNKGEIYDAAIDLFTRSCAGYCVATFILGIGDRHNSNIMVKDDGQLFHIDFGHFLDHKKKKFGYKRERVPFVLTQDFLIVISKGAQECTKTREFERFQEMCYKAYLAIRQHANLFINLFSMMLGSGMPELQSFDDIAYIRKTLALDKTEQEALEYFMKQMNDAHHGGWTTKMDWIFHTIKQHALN
UniProt P42338, whole entry: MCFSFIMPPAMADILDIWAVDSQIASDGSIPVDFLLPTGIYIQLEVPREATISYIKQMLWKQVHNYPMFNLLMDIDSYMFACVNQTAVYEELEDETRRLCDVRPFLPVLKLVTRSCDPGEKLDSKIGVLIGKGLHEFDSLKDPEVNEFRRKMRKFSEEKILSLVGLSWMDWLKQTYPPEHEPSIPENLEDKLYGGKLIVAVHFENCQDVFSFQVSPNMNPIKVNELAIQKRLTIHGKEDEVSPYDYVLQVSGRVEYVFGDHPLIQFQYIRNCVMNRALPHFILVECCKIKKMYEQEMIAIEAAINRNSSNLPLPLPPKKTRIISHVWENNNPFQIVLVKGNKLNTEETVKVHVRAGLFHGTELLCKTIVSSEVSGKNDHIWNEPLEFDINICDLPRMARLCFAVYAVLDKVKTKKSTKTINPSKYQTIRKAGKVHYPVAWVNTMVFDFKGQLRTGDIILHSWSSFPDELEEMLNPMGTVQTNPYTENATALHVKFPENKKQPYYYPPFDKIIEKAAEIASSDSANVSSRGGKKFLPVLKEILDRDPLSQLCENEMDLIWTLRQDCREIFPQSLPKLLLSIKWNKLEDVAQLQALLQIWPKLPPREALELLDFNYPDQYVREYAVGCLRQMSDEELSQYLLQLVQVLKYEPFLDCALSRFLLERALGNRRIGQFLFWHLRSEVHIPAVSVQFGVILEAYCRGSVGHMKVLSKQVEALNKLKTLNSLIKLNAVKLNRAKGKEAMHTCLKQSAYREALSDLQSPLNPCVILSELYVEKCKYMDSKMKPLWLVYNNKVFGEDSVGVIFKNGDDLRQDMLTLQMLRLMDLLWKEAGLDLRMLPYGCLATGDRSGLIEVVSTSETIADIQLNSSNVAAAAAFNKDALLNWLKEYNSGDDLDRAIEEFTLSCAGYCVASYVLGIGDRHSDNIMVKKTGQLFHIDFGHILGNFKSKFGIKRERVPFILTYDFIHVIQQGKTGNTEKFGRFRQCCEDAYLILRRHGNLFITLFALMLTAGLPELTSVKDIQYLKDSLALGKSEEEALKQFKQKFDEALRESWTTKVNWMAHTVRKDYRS
UniProt P27986, whole entry partner: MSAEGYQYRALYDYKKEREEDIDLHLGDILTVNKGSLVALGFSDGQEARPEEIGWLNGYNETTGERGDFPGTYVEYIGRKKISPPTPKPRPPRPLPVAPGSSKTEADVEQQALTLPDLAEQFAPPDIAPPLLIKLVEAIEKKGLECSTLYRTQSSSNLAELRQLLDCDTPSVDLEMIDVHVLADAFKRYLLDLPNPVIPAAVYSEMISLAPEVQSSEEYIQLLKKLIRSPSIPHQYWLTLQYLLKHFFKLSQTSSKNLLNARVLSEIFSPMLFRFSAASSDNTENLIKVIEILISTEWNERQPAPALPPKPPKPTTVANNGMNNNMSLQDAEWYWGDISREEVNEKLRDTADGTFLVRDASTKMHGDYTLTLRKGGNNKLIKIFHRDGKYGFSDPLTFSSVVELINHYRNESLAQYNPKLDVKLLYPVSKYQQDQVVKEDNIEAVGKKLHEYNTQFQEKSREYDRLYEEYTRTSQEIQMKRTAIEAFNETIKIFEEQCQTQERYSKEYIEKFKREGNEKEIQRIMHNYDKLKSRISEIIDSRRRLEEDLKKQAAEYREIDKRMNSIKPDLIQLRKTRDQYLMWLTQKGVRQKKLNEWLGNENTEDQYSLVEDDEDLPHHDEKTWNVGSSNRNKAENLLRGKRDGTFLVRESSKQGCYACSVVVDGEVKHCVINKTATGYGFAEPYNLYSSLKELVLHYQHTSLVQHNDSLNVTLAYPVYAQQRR

Legend:
PI3K γ = PI3K γ (Homo sapiens, UniProt P48736); assay: Enzyme activity test in vitro (ADP-Glo lipid kinase), PI3K γ; details: read-out: PI3K γ IC50, ATP 25 μM, 120 min
PI3K δ = PI3K δ (Homo sapiens, UniProt O00329); assay: Enzyme activity test in vitro (ADP-Glo lipid kinase), PI3K δ; details: read-out: PI3K δ IC50, ATP 40 μM, 120 min
PI3K α = PI3K α (Homo sapiens, UniProt P42336); assay: Enzyme activity test in vitro (ADP-Glo lipid kinase), PI3K α; details: read-out: PI3K α IC50, ATP 40 μM, 120 min
PI3K β = PI3K β (Homo sapiens, UniProt P42338); assay: Enzyme activity test in vitro (ADP-Glo lipid kinase), PI3K β; details: read-out: PI3K β IC50, ATP 40 μM, 120 min
[1] = test system: HCC1954 cells with PIK3CA mutation; assay: Cell activity test in vitro, anti-proliferation by CTG method, HCC1954; details: read-out: HCC1954 Cell IC50, 72 hours
[2] = In vivo plasma/brain tissue distribution study in male SD rats
[3] = In vivo DMPK study in male CD-1 mice
Rat plasma-protein = Rat plasma-protein binding; assay type: in vitro ADME
[4] = test system: MDCK cells with high expression of MDR1; assay: MDCK-MDR1 permeability test; assay type: in vitro ADME; details: 2 μM, pH 7.4, 2.5 hours
[5] = oral 10 mpk, cerebrospinal fluid

Question: With CC(Nc1ccc2c(c1)OCCn1cc(N3C(=N)OC[C@H]3C(F)F)nc1-2)C(N)=O (some centres unmarked) as the compound, how does the pIC50 (PI3K γ) read?
Answer: < 5.00

Question: What about the pIC50 (PI3K δ) of the same compound?
Answer: < 5.00

Question: What about the pIC50 (PI3K α) of the same compound?
Answer: 8.26

Question: What about the pIC50 (PI3K β) of the same compound?
Answer: < 5.00

Question: And the pIC50 [1]?
Answer: 6.61

Question: With CO/N=C(\N)C(C)Nc1ccc2c(c1)OCCn1cc(N3C(=O)OC[C@H]3C(F)F)nc1-2 (some centres unmarked) as the compound, how does the “Cerebrospinal fluid/plasma free drug ratio” value ([2]; oral 10 mpk) read?
Answer: 0.21

Question: What about the “AUC, Brain tissue” value ([2]; oral 10 mpk, brain tissue) of the same compound?
Answer: 2.082 µM·h

Question: And the “Cmax, Brain tissue” value ([2]; oral 10 mpk, brain tissue)?
Answer: 1.043 µM

Question: What about the “T1/2, Brain tissue” value ([2]; oral 10 mpk, brain tissue) of the same compound?
Answer: 1.45 h

Question: What about the “Tmax, Brain tissue” value ([2]; oral 10 mpk, brain tissue) of the same compound?
Answer: 0.25 h

Question: What about the “AUC, Cerebrospinal fluid” value [2, 5] of the same compound?
Answer: 1.077 µM·h

Question: What about the “T1/2, Cerebrospinal fluid” value [2, 5] of the same compound?
Answer: 1.38 h

Question: And the “Tmax, Cerebrospinal fluid” value [2, 5]?
Answer: 0.25 h

Question: What about the “AUC, Plasma” value ([2]; oral 10 mpk, plasma) of the same compound?
Answer: 21.717 µM·h

Question: And the “T1/2, Plasma” value ([2]; oral 10 mpk, plasma)?
Answer: 1.72 h

Question: And the “Tmax, Plasma” value ([2]; oral 10 mpk, plasma)?
Answer: 0.25 h

Question: And the Cmax ([2]; read-out: Cmax, Cerebrospinal fluid, oral 10 mpk, cerebrospinal fluid)?
Answer: 0.552 µM

Question: And the Cmax ([2]; read-out: Cmax, Plasma, oral 10 mpk, plasma)?
Answer: 10.3 µM

Question: And the “Intravenous injection Cl” value ([3]; 1 mg/kg intravenous)?
Answer: 5.30 mL/min/kg

Question: What about the “Intravenous injection T1/2” value ([3]; 1 mg/kg intravenous) of the same compound?
Answer: 1.13 h

Question: And the “Intravenous injection Vd” value ([3]; 1 mg/kg intravenous)?
Answer: 0.372 L/kg

Question: And the “Oral DNAUC” value ([3]; 3 mg/kg oral administration)?
Answer: 6441 nM · h/mpk

Question: What about the “Oral F %” value ([3]; 3 mg/kg oral vs 1 mg/kg intravenous) of the same compound?
Answer: 89.1%

Question: What about the Cmax ([3]; read-out: Oral Cmax, 3 mg/kg oral administration) of the same compound?
Answer: 9.35 µM

Question: And the “Rat plasma-protein binding, unbound %” value (Rat plasma-protein)?
Answer: 23.9%

Question: What about the pIC50 (PI3K γ) of the same compound?
Answer: 7.44

Question: And the pIC50 (PI3K δ)?
Answer: 7.77

Question: And the pIC50 (PI3K α)?
Answer: 8.91

Question: And the “Permeability, MDCK-MDR1, A to B” value [4]?
Answer: 16.9 10^−6 cm/s

Question: And the “Permeability, MDCK-MDR1, B to A” value [4]?
Answer: 32.8 10^−6 cm/s

Question: And the Permeability, MDCK-MDR1, Efflux Ratio [4]?
Answer: 1.94

Question: And the pIC50 (PI3K β)?
Answer: 6.15

Question: And the pIC50 [1]?
Answer: 6.68

Question: With CN=C1OC[C@@H](C(F)F)N1c1cn2c(n1)-c1ccc(NC(C)C(N)=O)cc1OCC2 (some centres unmarked) as the compound, how does the pIC50 (PI3K γ) read?
Answer: < 5.00

Question: And the pIC50 (PI3K δ)?
Answer: < 5.00

Question: And the pIC50 (PI3K α)?
Answer: 7.72

Question: What about the pIC50 (PI3K β) of the same compound?
Answer: < 5.00

Question: And the pIC50 [1]?
Answer: 6.73
